# Binding of CDR-mutated scFvs to a peptide of the spike HR2 region

Values reported by Li et al. 2023, doi:10.1038/s41467-023-39022-2 (FLAb copy).

Antigen: PDVDLGDISGINAS, a 14-residue peptide of the SARS-CoV-2 spike HR2 region.

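The starting antibody came from a phage panning campaign against this peptide. These sequences belong to a second round, designed from the earlier measurements on random variants of the parent. Several design methods are mixed in this list. The assay is AlphaSeq: two haploid yeast populations carry antibody and antigen on their surface. Mating (16 h, 30 °C) was followed by selection of diploids and sequencing of their barcodes. Each replicate has its own calibration line, from reference interactions of the BCL2 family. Each pool was mated in six replicate cultures.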

Parent scFv Ab-14: VH joined to VL by three GGGGS repeats. Changes lie in the heavy chain CDRs alone.
VH: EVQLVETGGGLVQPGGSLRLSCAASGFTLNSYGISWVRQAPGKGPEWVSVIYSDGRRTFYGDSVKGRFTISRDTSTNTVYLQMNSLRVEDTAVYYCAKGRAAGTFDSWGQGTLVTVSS
VL: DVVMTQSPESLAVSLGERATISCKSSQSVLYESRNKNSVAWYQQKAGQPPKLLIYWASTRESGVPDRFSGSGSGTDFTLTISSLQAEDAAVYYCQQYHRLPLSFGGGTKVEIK

Each variant is given by its three heavy chain CDRs, as the data file delimits them; those of the parent are GFTLNSYGIS, VIYSDGRRTFYGDSVK, GRAAGTFDS. Numbers give log10(Kd / nM), so 0 is 1 nM and 3 is 1 µM. Smaller is tighter. The mean shown is taken over the replicates in which the pair was detected. An entry "no signal" has no value in the source: the pair was not observed among the diploids in any replicate. This suggests poor binding but is not conclusive. Values of this round are not directly comparable with the first-round values of the same sequences. Some sequences occur more than once in the pool; their replicates are pooled. In the paper, a design with two or fewer of six values counts as a poor binder. Three control strains display no target. For all heavy chain designs, 1% of the pairings with them gave a signal, with a median of 2.08 and one signal in twenty below 0.84, so weak values seen in few replicates may be background. Also given: how often the same scFv was detected with the empty control strains. The parent sequence was in this pool as ten entries: three were never detected, three once, and four in most replicates, with averages from 0.34 to 2.37.

CDR-H1 | CDR-H2 | CDR-H3 | mean log10 Kd (nM) | detected | signal with controls
GQDLNSYGIS | VIYSDGRRTFYGDSVK | GRLAGTFDS | 1.83 | 6 of 6 | 0 of 18
GFDINEYGIS | VVYADGMRQAYIENFK | GTLSGTFDA | no signal | 0 of 6 | 0 of 18
GFDIEEFGIS | VIYADGIRAAYAQKVK | GTIAGTFVD | 0.76 | 6 of 6 | 0 of 18
GFDLDKYGIS | VIYADGKRVAYTDDVK | GVTGGMLLV | no signal | 0 of 6 | 0 of 18
GFDLEDYGIS | VIYADGRRTAYSDSVK | GEAAGTFDS | 0.17 | 6 of 6 | 1 of 18
GFTLNSYGIS | VIYSDGRRTFYSDSVK | GRQAGTFDS | 0.48 | 6 of 12 | 0 of 36
GQNLDEYGIS | VIYADGMRKWYADSVK | GNMSAGLIA | no signal | 0 of 6 | 1 of 18
GFNLDEYGIS | VIYADGRRVAYANNVK | GKNGMFFSN | 3.05 | 1 of 6 | 3 of 18
GFELNSYGIS | VIYSDGRRTFYIDSVK | GEAAGTFDS | 0.74 | 6 of 6 | 0 of 18
GFDLNEYGIS | VIYADGKRTAYIDSVK | GEAAGTFDK | -0.34 | 6 of 6 | 0 of 18
GFDLDEYGIS | VIYADGRRTFYQDSVK | GQAAGTFDI | -0.56 | 6 of 6 | 1 of 18
GFKLDEYGIS | VIYADGHRVAYSNQVK | GDNMGFMVE | no signal | 0 of 6 | 0 of 18
GFDLNEYGIS | VIYADGQRTFYADSVK | GKNAGTFDQ | -0.07 | 6 of 6 | 0 of 18
GFDLNEYGIS | VIYADGQRTAYADSVK | GTNAGTFDQ | -0.08 | 6 of 6 | 1 of 18
GFELNDYGIS | VIYSDGRRTFYIDSVK | GRTAGTFDS | 1.57 | 6 of 6 | 0 of 18
GFDLNEYGIS | VIYADGMRTAYTDSVK | GEVAGTFDQ | -0.58 | 6 of 6 | 1 of 18
GYDIDEYGIS | VIYADGQRTSYVQNVK | GAGDITGLV | no signal | 0 of 6 | 0 of 18
GFLLNSYGIS | VIYSDGRRTFYADSVK | GQTAGTFDS | 0.89 | 6 of 6 | 0 of 18
GATLNSYGIS | VIYSDGRRTFYGDSVK | GRAAGTFFS | no signal | 0 of 6 | 0 of 18
GFDLNSYGIS | VIYSDGRRTFYGDSVK | GRAAWTFDQ | no signal | 0 of 6 | 0 of 18
GFDLNEYGIS | VIYADGRRTFYADSVK | GENGGTFDS | 0.36 | 6 of 6 | 0 of 18
GFDLNEYGIS | VIYADGQRTFYDDSVK | GQLAGTFDL | 0.49 | 6 of 6 | 0 of 18
GFELNEYGIS | VIYSDGRRTFYGDSVK | GKTAGTFDS | -0.23 | 6 of 6 | 0 of 18
GFTLNDYGIS | VIYSDGRRTFYGNSVK | GDAAGTFDG | 2.00 | 5 of 6 | 0 of 18
GFKLNEYGIS | VIYSDGRRTFYIDSVK | GRAAGTFDS | 0.95 | 6 of 6 | 1 of 18
GFDLNEYGIS | VIYADGVRTAYADTVK | GQNAGTFDV | -0.59 | 6 of 6 | 0 of 18
GFDLNEYGIS | VIYADGVRTFYSDSVK | GEAAGTFDV | -0.20 | 6 of 6 | 1 of 18
GFDLDEYGIS | VIYADGMRTAYTDSVK | GEVAGTFDI | -0.12 | 6 of 6 | 0 of 18
GEDLDEYGVS | VIYADGIRSTYADAVK | GKHGAAFFV | no signal | 0 of 6 | 0 of 18
GFDLNSYGIS | VIYMDGRRTFYGDSVK | GRAAGWLNS | no signal | 0 of 6 | 0 of 18
GFDLNSYGIS | VIYSDGRRTFYGDAVK | GRTAGTFDA | -0.22 | 6 of 6 | 0 of 18
PFELNSYGIS | VIYSDGRRTFYADSVK | GRTAGTFDS | 1.33 | 6 of 6 | 0 of 18
GFTLNSYGIS | VIYSDGKRTFYGTSVK | GRAADTFDS | no signal | 0 of 6 | 0 of 18
GFTLNQYGIS | VIYSDGRRTFYADSVK | GRAAGTFVS | no signal | 0 of 6 | 0 of 18
GFTLNEYGIS | VIYSDGRRTAYSDSVK | GKAAGTFDS | -0.58 | 6 of 6 | 1 of 18
GFDLNEYGIS | VIYADGVRTFYSDSVK | GNVAGTFDK | -0.72 | 6 of 6 | 0 of 18

The remaining entries, values ahead:

mean log10 Kd (nM) | detected | signal with controls | CDR-H1 | CDR-H2 | CDR-H3
1.17 | 6 of 6 | 0 of 18 | GFTLNDYGIS | VIYSDGKRTFYIDSVK | GRAAGTFDS
0.38 | 8 of 12 | 1 of 36 | GFDLNSYGIS | VIYSDGRRTAYGDSVK | GQAAGTFDS
0.46 | 6 of 6 | 0 of 18 | HFTLNSYGIS | VIYADGRRTFYGDSVK | GEAAGTFDS
no signal | 0 of 6 | 1 of 18 | GFTLNDYGIS | VIYSDGLRTFYGDSVK | GYAALTFIS
0.58 | 6 of 6 | 0 of 18 | GFQLNSYGIS | VIYSDGRRTFYADSVK | GRVAGTFDQ
no signal | 0 of 6 | 0 of 18 | GFTHNDYGIS | VIYSAGRRTQYIDSVK | GRAAGTFDS
-0.26 | 6 of 6 | 0 of 18 | GFDLNEYGIS | VIYADGMRTAYSDDVK | GNNAGTFDI
1.78 | 5 of 6 | 2 of 18 | GFTLNDYGIS | VIYSDGRRTFMGDSVK | WRAAGTFDS
0.66 | 6 of 6 | 0 of 18 | GFDLNEYGIS | VIYSDGRRTFYGDRVK | GRTAGTFDS
1.18 | 6 of 6 | 0 of 18 | GFTLLDYGIS | VIYSDGKRTFYGDSVK | GRAAGTFDS
-0.82 | 6 of 6 | 0 of 18 | GFDLNDYGIS | VIYADGRRTAYIDSVK | GEVAGTFDA
2.36 | 1 of 6 | 1 of 18 | GFPLESYGIS | VIYSDGRRTFYADSVK | GRAAGTFHQ
no signal | 0 of 6 | 0 of 18 | GHTLNEYGIS | VIPSDGRRTFYGDSVK | GRAAVTFDQ
no signal | 0 of 6 | 0 of 18 | GFTLNSYGIS | VIYSDGRRTFYGDSVK | GEAADTFPS
no signal | 0 of 6 | 0 of 18 | GFVLNSYGIS | VIYSDGRRTFYGDSVK | GENAGTFFS
-0.04 | 6 of 6 | 0 of 18 | GFSLNSYGIS | VIYSDGRRTFYADSVK | GQVAGTFDS
no signal | 0 of 6 | 0 of 18 | GEDLNEYGIS | VIYADGRRTYYDNSVK | GKFTGSFFH
0.59 | 5 of 6 | 0 of 18 | GFWLNEYGIS | VIYSDGRRTFYGDSVK | GNAAGTFDS
0.13 | 6 of 6 | 0 of 18 | GFSLESYGIS | VIYSDGRRTFYADDVK | GRAAGTFDS
0.35 | 6 of 6 | 0 of 18 | GFDLNSYGIS | VIYSDGRRTFYIDSVK | GMAAGTFDS
0.78 | 6 of 6 | 1 of 18 | GFQLNEYGIS | VIYSDGRRTFYGDSVK | GRYAGTFDT
no signal | 0 of 6 | 0 of 18 | GFTLNSYGIS | VIYSDGRRTAYGDSVK | GRATGTKDS
0.12 | 6 of 6 | 0 of 18 | GFTLESYGIS | VIYADGRRTFYGDSVK | GEAAGTFDA
no signal | 0 of 6 | 0 of 18 | GFNLDEYGIS | VIYADGTRTSYQDNVK | GVTGGHDVT
-0.22 | 6 of 6 | 0 of 18 | GFDLNEYGIS | VIYADGMRTAYADNVK | GNVAGTFDQ
-0.38 | 6 of 6 | 0 of 18 | GFDLNEYGIS | VIYADGQRTAYADSVK | GEVAGTFDS
0.87 | 6 of 6 | 1 of 18 | GFTLNEYGIS | VIYSDGRRTFYSDSVK | GRAAGCFTS
0.31 | 6 of 6 | 0 of 18 | GFSLNAYGIS | VIYSDGRRTFYGDSVK | GQTAGTFDS
-0.05 | 6 of 6 | 1 of 18 | GFDLNSYGIS | VIYSDGMRTFYGDSVK | GNAAGTFDS
0.02 | 6 of 6 | 0 of 18 | GFSLESYGIS | VIYSDGRRTFYADNVK | GRTAGTFDS
1.13 | 1 of 6 | 0 of 18 | KFTLNEYGIS | VIYSDGRRTFYGDSVK | GRQAGTFDS
no signal | 0 of 6 | 0 of 18 | GFHLNSYGIS | VIYADGRRTQYGDSVK | GRAAGTFDS
1.80 | 5 of 6 | 0 of 18 | GFTLNSYGIS | VIYSDGRRTFYGQSVK | GQSAGTFDS
1.72 | 3 of 6 | 0 of 18 | GFTLKSYGIS | VIYSDGMRTFYSDSVK | GRYAGTFDS
no signal | 0 of 6 | 0 of 18 | GFTLNSYGIS | VIYSDGRRTFYGDSVK | GRAAGTFSQ
0.54 | 6 of 6 | 0 of 18 | GFSLNSYGIS | VIYSDGRRTFYADSVK | GLTAGTFDS

The opening 10 entries, copied out:

| CDR-H1 | CDR-H2 | CDR-H3 | mean log10 Kd (nM) | detected | signal with controls |
|---|---|---|---|---|---|
| GQDLNSYGIS | VIYSDGRRTFYGDSVK | GRLAGTFDS | 1.83 | 6 of 6 | 0 of 18 |
| GFDINEYGIS | VVYADGMRQAYIENFK | GTLSGTFDA | no signal | 0 of 6 | 0 of 18 |
| GFDIEEFGIS | VIYADGIRAAYAQKVK | GTIAGTFVD | 0.76 | 6 of 6 | 0 of 18 |
| GFDLDKYGIS | VIYADGKRVAYTDDVK | GVTGGMLLV | no signal | 0 of 6 | 0 of 18 |
| GFDLEDYGIS | VIYADGRRTAYSDSVK | GEAAGTFDS | 0.17 | 6 of 6 | 1 of 18 |
| GFTLNSYGIS | VIYSDGRRTFYSDSVK | GRQAGTFDS | 0.48 | 6 of 12 | 0 of 36 |
| GQNLDEYGIS | VIYADGMRKWYADSVK | GNMSAGLIA | no signal | 0 of 6 | 1 of 18 |
| GFNLDEYGIS | VIYADGRRVAYANNVK | GKNGMFFSN | 3.05 | 1 of 6 | 3 of 18 |
| GFELNSYGIS | VIYSDGRRTFYIDSVK | GEAAGTFDS | 0.74 | 6 of 6 | 0 of 18 |
| GFDLNEYGIS | VIYADGKRTAYIDSVK | GEAAGTFDK | -0.34 | 6 of 6 | 0 of 18 |